# In PMC5667422 (Theranostics, 2017):
# Tests used:
# [1] = tested on: subcutaneous A549 tumor xenografts
# [2] = tested on: orthotopic A549 NSCLC tumors; conditions: ^18F-FDG 60 min p.i.
# [3] = tested on: osseous A549 tumor xenografts
# [4] = A549 osseous tumor model, ^18F-FDG
smiles,measurement,setting,value
"OC[C@H]1OC(O)[C@H](F)[C@@H](O)[C@@H]1O (some centres unmarked) [^18F-FDG, ^18F-fluorodeoxyglucose]","T/N values in subcutaneous, orthotopic and osseous tumors","[1]; ^18F-FDG, all three A549 models, printed 'less than or close to 1'",≤ 1
same,background uptake in muscle (PET ROI),"[1]; subcutaneous A549 model, ^18F-FDG 60 min p.i.",3.11 ± 1.05 % ID/g
same,T/N value (N: normal muscle),"[1]; subcutaneous A549 tumor, ^18F-FDG 60 min p.i., n = 5",1.15
same,tumor uptake (PET ROI),[2]; n = 5,1.39 ± 0.075 %ID/g
same,T/N ratio (N: normal lung tissue),[2]; orthotopic A549 tumor,0.74
same,bone uptake,[3]; [4],2.37 ± 0.53 %ID/g
same,thigh muscle uptake,[3]; [4],1.65 ± 0.29 %ID/g
same,osseous tumor uptake,"[3]; A549 osseous tumor, ^18F-FDG 60 min p.i.",3.78 ± 0.73 %ID/g
